Key:
[1] = biological target: T1, cloned human kappa opioid receptor (Homo sapiens, UniProt P41145); assay: cell-based
T1 construct: expressed in transfected cells; host or cells: CHO cells

Protein sequences, listed by entry. Tags and fused reporters are not part of them. Lines headed by an entry give the natural chain unless they say otherwise; changes in a name come on top.
UniProt P41145: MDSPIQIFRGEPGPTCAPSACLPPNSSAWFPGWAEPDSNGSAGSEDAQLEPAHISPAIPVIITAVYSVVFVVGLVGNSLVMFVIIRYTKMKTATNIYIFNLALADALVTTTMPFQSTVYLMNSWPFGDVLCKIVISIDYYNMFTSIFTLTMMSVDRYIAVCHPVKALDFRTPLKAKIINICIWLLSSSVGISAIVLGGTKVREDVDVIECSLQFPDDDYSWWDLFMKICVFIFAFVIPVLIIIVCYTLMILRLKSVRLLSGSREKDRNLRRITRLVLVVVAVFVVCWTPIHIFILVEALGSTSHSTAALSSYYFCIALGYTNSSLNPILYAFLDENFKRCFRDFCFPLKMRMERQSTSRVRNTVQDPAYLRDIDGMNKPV
UniProt P41143, whole entry: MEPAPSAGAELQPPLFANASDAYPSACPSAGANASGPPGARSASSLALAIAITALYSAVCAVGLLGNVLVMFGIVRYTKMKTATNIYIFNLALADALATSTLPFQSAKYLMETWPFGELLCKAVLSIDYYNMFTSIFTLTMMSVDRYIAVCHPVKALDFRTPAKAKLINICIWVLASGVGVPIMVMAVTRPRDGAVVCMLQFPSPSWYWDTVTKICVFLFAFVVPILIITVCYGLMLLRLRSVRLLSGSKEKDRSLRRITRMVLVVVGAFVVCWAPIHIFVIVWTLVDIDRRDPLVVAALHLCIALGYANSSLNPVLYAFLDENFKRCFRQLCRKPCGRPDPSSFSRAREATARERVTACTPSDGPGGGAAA

[2] = biological target: recombinant human delta opioid receptor (Homo sapiens, UniProt P41143); details: GTP-γS binding, screened up to 10 μM in agonist and antagonist mode

| Compound | EC50 [1] | effect at the delta opioid receptor [2] |
| --- | --- | --- |
| COc1ccc2c3c1O[C@H]1[C@@H](O)C=C[C@H]4[C@@H](C2)N(C)CC[C@@]341 [Codeine, codeine, reference compound] | > 500 µM |  |
| COCCOCCOCCOCCOCCOCCOCCOCCOCCOC1CCC2(O)C3Cc4ccc(O)c5c4C2(CCN3CC2CCC2)C1O5 (centres unmarked) [6-O-mPEG9-Nalbuphine, 6-O-mPEG9-nalbuphine] |  | weak antagonistic |

— patent publication US8569343B2, “Oligomer-opioid agonist conjugates” (Nektar Therapeutics, priority 2007, dated 2013)
